From patent publication US6949383B2 (priority 1998, dated 2005)

How the values were obtained:
wild type (dnaQ+ strain) = test: MNNG mutagenesis treatment: growth or extinction of the treated group
dnaQ = test: Minimum growth inhibiting concentration (MIC) of antibiotic substances; assay type: cell-based, Escherichia coli
Super-Amp-resistant dnaQ = test: as above; assay type: cell-based, Escherichia coli
Wild-Type = test: as above; assay type: cell-based, Escherichia coli

CN(N=O)C(=N)N[N+](=O)[O-]
Fate of MNNG-treated wild type group (d.o.: died out) (wild type (dnaQ+ strain); MNNG 3 μg/ml medium, 5th Run): d.o.
Fate of MNNG-treated wild type group (d.o.: died out) (wild type (dnaQ+ strain); MNNG 10 μg/ml medium, 2nd Run): d.o.
Fate of MNNG-treated wild type group (d.o.: died out) (wild type (dnaQ+ strain); MNNG 30 μg/ml medium, 2nd Run): d.o.
Fate of MNNG-treated group (wild type (dnaQ+ strain); high-concentration MNNG treatment): extinction of the microorganism took place

Tetracyctine
Minimum growth inhibiting concentration (MIC) (dnaQ): 0.25
Minimum growth inhibiting concentration (MIC) (Super-Amp-resistant dnaQ): 0.25
Minimum growth inhibiting concentration (MIC) (Wild-Type): 0.25
